The test concerns T47D. Description: Antiproliferative activity against human T47D cells after 48 hrs by MTT assay. It is filed as functional, cell-based.
For `O=C1CCC2=C1C(c1cc3ccccc3n1Cc1ccccc1)C1=C(CCC1=O)O2`, the Activity entry was “Dose-dependent effect”.

As for `CC1(C)CC(=O)C2=C(C1)OC1=C(C(=O)CC(C)(C)C1)C2c1cc2ccccc2n1Cc1ccccc1`, the Activity entry is “Dose-dependent effect”.

With `O=c1[nH]c2c(c(=O)[nH]1)C(c1cc3ccccc3n1Cc1ccccc1)c1c([nH]c(=O)[nH]c1=O)O2`, the Activity entry is “Dose-dependent effect”.

On to `CC1CC(=O)C2=C(C1)OC1=C(C(=O)CC(C)(C)C1)C2c1cc2ccccc2n1Cc1ccccc1` (centres undefined), for which the Activity entry was “Dose-dependent effect”.

Consider `CC1(C)CC(=O)C2=C(C1)OC1=C(C(=O)CCC1)C2c1cc2ccccc2n1Cc1ccccc1` (centres undefined), for which the Activity result was “Dose-dependent effect”.

Consider `CC1CC(=O)C2=C(C1)OC1=C(C(=O)CCC1(C)C)C2c1cc2ccccc2n1Cc1ccccc1` (centres undefined), for which the Activity result was “Dose-dependent effect”.

Take `CC1CC(=O)C2=C(C1)OC1=C(C(=O)CCC1)C2c1cc2ccccc2n1Cc1ccccc1` (centres undefined): the Activity result is “Dose-dependent effect”.

With `CC1(C)CCC(=O)C2=C1OC1=C(C(=O)CCC1)C2c1cc2ccccc2n1Cc1ccccc1` (centres undefined), the Activity entry was “Dose-dependent effect”.

As for `CC1(C)CC(=O)C2=C(C1)OC1=C(C(=O)CCC1(C)C)C2c1cc2ccccc2n1Cc1ccccc1` (centres undefined), the Activity result was “Dose-dependent effect”.

The values above are taken from ChEMBL document CHEMBL4184175, “Design, synthesis and biological evaluation of novel indole-xanthendione hybrids as selective estrogen receptor modulators” (Bioorg Med Chem, 2018).
